From US12492232B2, “Methods for producing proteins” (South Australian Health and Medical Research Institute …, priority 2018, dated 2025)

Tests used:
Assay type in all cases: cell-based
mTORC1 signalling = mTORC1 signalling (Western blot, S6K1 and rpS6) in transfected CHO cells starved of serum and amino acids, with or without TSC1/2 co-transfection
Text: FIGS. 1A-1B: Recombinant GST-Rheb proteins were subjected to GAP assay in the presence of FLAG-TSC1, FLAG-TSC2 and [α-^32P] GTP. GST-Rheb bound to GDP or GTP was pulled down using glutathione beads and the nucleotides were then separated by thin-layer chromatography and visualized by phosphorimager. The positions of GDP and GTP are shown (FIG. 1A). […] FIGS. 1C-1D: CHO cells were co-transfected using Lipofectamine 3000 with vectors encoding wildtype (WT) Rheb or the indicated mutants and TSC1/2 as indicated. 36 h after transfection, cells were transferred to Ham's F12 media lacking FBS for 16 h. Cells were the transferred to Dulbecco's phosphate-buffered saline (D-PBS, which lacks amino acids) for 1 h before cell lysates were harvested for SDS-PAGE and Western Blotting analysis using the indicated antibodies. […] This effect is consistent with lack of sensitivity of the mutant Rhebs to TSC1/TSC2. Thus the Rheb mutants S21L, T23M, G29S, Y35N and E40K promote mTORC1 signalling in the absence of upstream activation due to insensitivity to the GAP activity of the TSC complex.

[1] = system: mTORC1 localisation at the lysosome; test: Immunofluorescence of mTOR and LAMP1 colocalisation in serum-starved transfected CHO cells; details: medium lacking FBS for 16 h
Procedure: CHO-K1 cells were seeded in chamber slides at a density of 50,000 cells/slide 24 h prior to transfection via Lipofectamine3000 with an empty vector or vector for Rheb-WT, T23M, Y35N or E40K. 24 h after transfection cells were transferred to medium lacking FBS for 16 hours. Cells were fixed with 4% paraformaldehyde, permeabilized with 0.05% Triton X-100, blocked with 10% normal donkey serum before LAMP1 and then anti-mTOR antibodies were applied overnight. Alexa Fluor™ 488 and 594-labelled secondary antibodies were applied before cells were mounted and stained with DAPI.
CHO cells were seeded into chamber slides at a density of 50,000 cells/slide 24 h prior to transfection via Lipofectamine3000 with an empty pcDNA3.1 vector or Rheb-WT, T23M, Y35N or E40K. 24 h after transfection cells were transferred to medium lacking FBS for 16 h. Cells were fixed with 4% paraformaldehyde, permeabilized with 0.05% Triton X-100, blocked with 10% normal donkey serum before LAMP1 and mTOR antibodies were applied overnight. Alexa Fluor™ 488 and 594 secondary antibodies were applied before cells were mounted and stained with DAPI.

CHO cells = test: Growth of transfected CHO cells in medium with 10%, 1%, 0.5% or 0% FBS (cell counts over 7 days); details: compared with Rheb-T23M
Procedure: CHO cells were seeded into 24-well plates at 5,000 cells/well. 24 h after seeding, cells were transfected using Lipofectamine3000 with an empty vector or vectors for Rheb WT, S21L, T23M, G29S, Y35N or E40K. 24 h after transfection, cells were transferred to medium containing 10%, 1%, 0.5% or 0% FBS as indicated. Every 24 h for 7 days, cells were trypsinized (from different dishes on each occasion) and counted on a haemocytometer. Growth medium was changed every 2 days. […] This effect may be highly advantageous for the propagation of CHO cells under industrial conditions in defined or minimal media.
CHO cells were seeded into 24-well plates at 5,000 cells/well. 24 h after seeding, cells were transfected using Lipofectamine3000 with an empty pcDNA3.1 vector or vectors for FLAG-tagged Rheb WT, S21L, T23M, G29S, Y35N or E40K. 24 h after transfection, cells were transferred to media (Ham's F12 from Life Technologies, Cat. No. 11765054) containing 10%, 1%, 0.5% or 0% foetal bovine serum, as indicated. Cells were trypsinized and counted on a haemocytometer every 24 h for 7 days. Growth medium was changed every 2 days.

Substance: Rheb-WT: wildtype human Rheb (Ras homologue enriched in brain) protein, UniProtKB Q15382, SEQ ID NO. 2 [reference compound]
- mTORC1 signalling in the absence of upstream activation (mTORC1 signalling; no serum 16 h, D-PBS 1 h, compared to empty vector and Rheb-WT): maintained mTORC1 signalling
- mTORC1 signalling when co-transfected with TSC1/TSC2 (mTORC1 signalling; no serum and amino acids, co-transfected with TSC1/TSC2): mTORC1 signalling was suppressed
- mTOR localisation to the lysosome (overlap with LAMP1) [1]: little overlap of the proteins; also recorded: little observed overlap of the signals
- effect in promoting cell proliferation under serum-deficient conditions (CHO cells): far smaller effect

“Also recorded” adds a separate entry of the source.
